Values quoted from earlier work as cited in patent publication US9969776B2, “Drug conjugates for delivering compounds to senescent cells” (Unity Biotechnology, Inc., priority 2007, dated 2018).
Where two headings read alike, the source gives them in different places.

Legend:
[1] = ×5 days; cited from earlier work
[2] = in man; cited from earlier work

Row | Substance | MTD [1] | MTD [2]
1 | 5-FU | 500 mg/m^2/day | –
2 | Cis-Pt | – | 100 mg/m^2
3 | carbo-Pt | – | 360 mg/m^2
